Values quoted from earlier work, collected in publication PMC6709472 (Antimicrobial Agents and Chemotherapy, 2019).

Test system: three Old World and three New World cutaneous Leishmania strains

For O=[N+]([O-])c1cn2c(n1)O[C@@H](COc1ccc(-c3ccc(F)cc3)nc1)CC2 [DNDI-0690], the EC50 is given as less than 5 µM.
